A short description of this data set: Solubility of purified OleA on concentration. Type of data set: physicochemical. The following applies: purified His-tagged OleA after concentration. The protocol:
Purification of OleA. Cells were resuspended in 20 mM sodium phosphate buffer, 500 mM NaCl pH 7.4 with EDTA-free protease inhibitor tablets (Roche). Cells were disrupted by 3 passes through a chilled French pressure cell at 1200 psi and centrifuged at 27,000 g for 90 min to obtain the soluble protein fraction. The soluble fraction was centrifuged at 27,000 g for 30 min to clear prior to loading onto a Pharmacia Biotech LCC 501 FPLC equipped with a 5 ml Ni(II)-loaded HisTrap HP column (Amersham Biosciences) equilibrated with 20 mM sodium phosphate, 500 mM NaCl pH 7.4 buffer. The OleA protein was eluted at 135 mM imidazole. Ten g wet weight of cell paste yielded 60 mg purified OleA. Fractions were analyzed by SDS-PAGE and Simply Blue Safestain (Invitrogen). Pooled fractions were concentrated, and imidazole removed, with 3 passes through a 50 ml pressure concentrator (Amicon) using a 10,000 MWCO membrane (Millipore). Alternatively, after concentration of fractions, the OleA protein was dialyzed 3 times at 4° C. to remove the imidazole. Protein concentrated up to 30 mg/ml remained soluble and active.

The text below walks through data of patent US20120015414A1, “Production of organic compounds” (priority 2010, published 2012).

B1: OleA: His-tagged OleA protein from Xanthomonas campestris produced in E. coli and purified (protein, UniProt Q8PDX2 1-338, looked up)
Acyl-CoA:acyl-CoA …: MLFQNVSIAGLAHIDAPHTLTSKEINERLQPTYDRLGIKTDVLGDVAGIHARRLWDQDVQASDAATQAARKALIDANIGIEKIGLLINTSVSRDYLEPSTASIVSGNLGVSDHCMTFDVANACLAFINGMDIAARMLERGEIDYALVVDGETANLVYEKTLERMTSPDVTEEEFRNELAALTLGCGAAAMVMARSELVPDAPRYKGGVTRSATEWNKLCRGNLDRMVTDTRLLLIEGIKLAQKTFVAAKQVLGWAVEELDQFVIHQVSRPHTAAFVKSFGIDPAKVMTIFGEHGNIGPASVPIVLSKLKELGRLKKGDRIALLGIGSGLNCSMAEVVW
modifications: His tag
notes: His-tagged OleA protein from Xanthomonas campestris produced in E. coli and purified
As to B1, the “concentration at which protein remained soluble and active” value is “up to 30 mg/ml”.
